Reference: PubChem BioAssay AID1823 (The Scripps Research Institute Molecular Screening Center, 2009)
Only a part is listed here, and it is no random draw. Activity calls are given as the source filed them. Cut-off read from the data, not from the text of the source: active = inhibition above about 75%; inactive = the rest.

Test: quenches luminol chemiluminescence in Nox1 counter-screen (AID 1823)
Settings: HRP/luminol/H2O2 chemiluminescence counterscreen; at 6.7 µM; stronger effect = higher value

**Q.** For `O=[N+]([O-])C1([N+](=O)[O-])COCOC1`, which inhibition is on record?
**A.** inactive: -2.25%
